Data: PubChem BioAssay (EPA / NIEHS)
Only a part is listed here, and it is no random draw. Calls of active or inactive are those of the source. How the source made its calls: active means hit-call score of the fitted dose curve at least 0.9, where 1 is the maximum; inactive means score below 0.9.

Tests used:
[1] = read-out: Vascular endothelial growth factor receptor 2 (Homo sapiens) (UniProt P35968); experiment: BSK_4H_VEGFRII: BioMAP Diversity Plus: 4H Assay for Vascular endothelial growth factor receptor 2 (VEGFR2) Biomarker Activity (AID 2283031); conditions: actives raise or lower the signal; primary human endothelial cells (HUVEC)
Method in brief: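 HUVEC (human primary), 4H system; 24 h post-dose; VEGFRII by ELISA; bidirectional curve fit vs DMSO baseline; gain or loss of signal scored.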

[2] = read-out: Human Leukocyte Antigen - DR isotype (HLADR), HLA-DRA (gene 3122); experiment: BSK_BE3C_HLADR: BioMAP Diversity Plus: BE3C Assay for Human Leukocyte Antigen - DR isotype (HLADR) Biomarker Activity (AID 2283032); conditions: actives raise or lower the signal; primary human bronchial epithelial cells
Experimental: BSK_BE3C is a cell-based, multiplexed-readout assay that uses bronchial epithelial cell, a human lung primary cell, with measurements taken at 24 hours after chemical dosing in a 96-well plate.BSK_BE3C_HLADR is an assay component measured in the BSK_BE3C assay. It measures HLA-DR antibody related to regulation of gene expression using ELISA technology.Data from the assay component BSK_BE3C_HLADR was analyzed into 1 assay endpoint. This assay endpoint, BSK_BE3C_HLADR, was analyzed with bidirectional fitting relative to DMSO as the negative control and baseline of activity. […] Furthermore, this assay endpoint can be referred to as a primary readout, because this assay has produced multiple assay endpoints where this one serves a signaling function. […]
The levels of cell surface (or secreted, indicated by the prefix "s") biomarker endpoints were measured by ELISA. Overt cytotoxicity to cells in confluent adherent cultures (all systems other than the BT system) was assessed by measuring total protein levels using sulforhodamine B (SRB) staining in parallel cultures at the time of biomarker measurements, indicated as SRB endpoints. […] SRB was performed by staining cells with 0.1% SRB after fixation with 10% TCA and reading wells at 560 nm.Viability and proliferation of PBMC (T cells) was quantified by Alamar Blue reduction for the SAg and BT systems. […] Plates were read after 6 h.

[3] = read-out: Vascular cell adhesion molecule 1 (VCAM1), VCAM1 (gene 7412); experiment: BSK_4H_VCAM1: BioMAP Diversity Plus: 4H Assay for Vascular cell adhesion molecule 1 (VCAM1) Biomarker Activity (AID 2283033); conditions: actives raise or lower the signal; primary human endothelial cells (HUVEC);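 on outcome: cell-surface VCAM-1 protein measured by ELISA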
Method in brief: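 Endpoint derived from bidirectional fitting against DMSO controls of VCAM-1 ELISA signal in umbilical vein endothelial cells sampled at 24 h following treatment.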

[4] = read-out: Interferon-gamma inducible Protein 10 (IP10), CXCL10 (gene 3627); experiment: BSK_BE3C_IP10: BioMAP Diversity Plus: BE3C Assay for Interferon-gamma inducible Protein 10 (IP10) Biomarker Activity (AID 2283034); conditions: actives raise or lower the signal; primary human bronchial epithelial cells
Method in brief: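 Using primary human bronchial epithelial cultures, the assay captures IP-10 by ELISA one day (24 h) after exposure. Parallel SRB staining of total protein flags overt cytotoxicity. Fits run bidirectionally relative to DMSO.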

[5] = read-out: Monokine induced gamma interferon (MIG), CXCL9 (gene 4283); experiment: BSK_BE3C_MIG: BioMAP Diversity Plus: BE3C Assay for Monokine induced gamma interferon (MIG) Biomarker Activity (AID 2283035); conditions: actives raise or lower the signal; primary human bronchial epithelial cells;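 further: MIG protein measured by ELISA in BE3C cultures after 24 h of dosing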
Method in brief: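 Primary human bronchial epithelial cells treated for 24 h; MIG levels measured by ELISA, fitted bidirectionally versus DMSO. Parallel SRB total-protein staining assessed cytotoxicity.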

[6] = read-out: Transforming growth factor beta 1 (TGFb1), TGFB1 (gene 7040); experiment: BSK_BE3C_TGFb1: BioMAP Diversity Plus: BE3C Assay for Transforming growth factor beta 1 (TGFb1) Biomarker Activity (AID 2283036;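 further: TGF-b1 protein level measured by ELISA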); conditions: actives raise or lower the signal; primary human bronchial epithelial cells
Method in brief: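 In this human primary bronchial epithelial system, an ELISA quantified TGF-b1 one day after dosing. Endpoint changes in either direction were fitted relative to DMSO.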

[7] = read-out: Plasminogen activator inhibitor-1 (PAI1), SERPINE1 (gene 5054); experiment: BSK_BE3C_PAI1: BioMAP Diversity Plus: BE3C Assay for Plasminogen activator inhibitor-1 (PAI1) Biomarker Activity (AID 2283037); conditions: actives raise or lower the signal; primary human bronchial epithelial cells
Method in brief: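 PAI-1 biomarker levels in treated human bronchial epithelial cells are determined by ELISA at 24 h. Both increases and decreases relative to DMSO are fitted.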

[8] = read-out: urokinase plasminogen activator (uPA), PLAU (gene 5328); experiment: BSK_BE3C_uPA: BioMAP Diversity Plus: BE3C Assay for urokinase plasminogen activator (uPA) Biomarker Activity (AID 2283038); conditions: actives raise or lower the signal; primary human bronchial epithelial cells;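 further: uPA read one day after compound addition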
Method in brief: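 ELISA read-out of uPA in human lung primary bronchial epithelial cultures, 24 h post-dosing. Gain or loss of signal fitted bidirectionally relative to DMSO baseline; cytotoxicity checked in parallel cultures via SRB total protein stain.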

[9] = read-out: Urokinase-type plasminogen activator receptor (uPAR), PLAUR (gene 5329); experiment: BSK_BE3C_uPAR: BioMAP Diversity Plus: BE3C Assay for Urokinase-type plasminogen activator receptor (uPAR) Biomarker Activity (AID 2283039); conditions: actives raise or lower the signal; primary human bronchial epithelial cells;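 further: cells exposed to compound for one day before measurement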
Method in brief: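 A uPAR ELISA serves as the readout, taken 24 h after treating primary human bronchial epithelial cells. Responses in either direction are fitted against DMSO, which defines baseline activity.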

[10] = read-out: Interleukin-6 (IL6), IL6 (gene 3569); experiment: BSK_CASM3C_IL6: BioMAP Diversity Plus: CASM3C Assay for Interleukin-6 (IL6) Biomarker Activity for (AID 2283040); conditions: actives raise or lower the signal; primary human coronary artery smooth muscle cells

**Q.** For CC(C)OP(OC(C)C)OC(C)C, which outcome [1] is on record?
**A.** inactive

**Q.** And the outcome [2]?
**A.** inactive

**Q.** And the outcome [3]?
**A.** inactive

**Q.** And the outcome [4]?
**A.** inactive

**Q.** And the outcome [5]?
**A.** inactive

**Q.** And the outcome [6]?
**A.** inactive

**Q.** And the outcome [7]?
**A.** inactive

**Q.** And the outcome [8]?
**A.** inactive

**Q.** And the outcome [9]?
**A.** inactive

**Q.** What about the outcome [10] of the same compound?
**A.** inactive

**Q.** For O=[N+]([O-])c1ccccc1[N+](=O)[O-], which outcome [1] is on record?
**A.** inactive

**Q.** And the AC50 [2]?
**A.** active: 23.6 µM

**Q.** What about the AC50 [3] of the same compound?
**A.** active: 13.2 µM

**Q.** What about the outcome [4] of the same compound?
**A.** inactive

**Q.** What about the outcome [5] of the same compound?
**A.** inactive

**Q.** What about the outcome [6] of the same compound?
**A.** inactive

**Q.** And the outcome [7]?
**A.** inactive

**Q.** And the outcome [8]?
**A.** inactive

**Q.** And the outcome [9]?
**A.** inactive

**Q.** What about the outcome [10] of the same compound?
**A.** inactive
